The text below walks through data of ChEMBL document CHEMBL1148459, “1-alkyl-4-acylpiperazines as a new class of imidazole-free histamine H(3) receptor antagonists” (J Med Chem, 2004).

Amino acid sequences for entries named in this document (tags omitted). A change or cut given only in a name is not applied to a line headed by its entry.
UniProt Q9Y5N1: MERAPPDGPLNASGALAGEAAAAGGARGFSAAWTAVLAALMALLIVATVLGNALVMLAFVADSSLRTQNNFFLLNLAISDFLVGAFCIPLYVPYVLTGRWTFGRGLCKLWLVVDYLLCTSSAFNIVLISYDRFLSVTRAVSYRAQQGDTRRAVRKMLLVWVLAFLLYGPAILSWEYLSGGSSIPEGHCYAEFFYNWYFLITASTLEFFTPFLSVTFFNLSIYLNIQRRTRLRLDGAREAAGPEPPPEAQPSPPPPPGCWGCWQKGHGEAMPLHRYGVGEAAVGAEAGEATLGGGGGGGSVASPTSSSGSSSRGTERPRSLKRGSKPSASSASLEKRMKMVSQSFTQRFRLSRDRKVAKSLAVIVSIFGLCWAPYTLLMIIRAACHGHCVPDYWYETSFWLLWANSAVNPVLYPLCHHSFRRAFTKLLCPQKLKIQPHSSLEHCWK

The target of this experiment is Histamine H3 receptor (Homo sapiens, UniProt Q9Y5N1). In words: Antagonist potency against human histamine H3 receptor expressed in CHO cells was determined by GTPgamma-S-assay. Format: functional, cell-based.

Usually Ki stands for the equilibrium dissociation constant of an inhibitor or competing ligand from its target. Low values mean tighter binding, high ones weaker binding. Compound `NC(=NCc1ccc(Cl)cc1)SCCCc1cnc[nH]1` [CLOBENPROPIT] yielded a Ki of 0.58 nM.
